The series is described as follows: S/D stability study (TnBP and PS 80 in the S/D buffer). The series is classed as physicochemical.

For the molecule `CCCCOP(=O)(OCCCC)OCCCC`, under “5 weeks, room temperature, protected from light”, the “degradation of TnBP in storage conditions” value was “no degradation”. Further, the TnBP concentration reads like this: (T0 (Preparation date), S/D buffer) 0.3%; (T5 (After 5 weeks), room temperature, protected from light) 0.3%.
